One test addresses kappa3 receptors. The note with it: read-out: Ki κ3 [^3H]NalBzoH.
For the next test, the target named is T1, delta receptors (Cavia porcellus, UniProt A0A286XTF2).
T1 construct: The brains were then homogenized in 50 mM Tris HCl, buffer pH 7.7, using a Polytron; from tissue; host or cells: guinea pig brain homogenate (membrane pellet)
Kind of test: biochemical. It is filed as binding, guinea pig.

Sequences of proteins named here, by UniProt entry; tags and fusion partners are left off. A change or cut given only in a name is not applied to a line headed by its entry. Residues count along the entry.
UniProt A0A286XTF2, 1-366: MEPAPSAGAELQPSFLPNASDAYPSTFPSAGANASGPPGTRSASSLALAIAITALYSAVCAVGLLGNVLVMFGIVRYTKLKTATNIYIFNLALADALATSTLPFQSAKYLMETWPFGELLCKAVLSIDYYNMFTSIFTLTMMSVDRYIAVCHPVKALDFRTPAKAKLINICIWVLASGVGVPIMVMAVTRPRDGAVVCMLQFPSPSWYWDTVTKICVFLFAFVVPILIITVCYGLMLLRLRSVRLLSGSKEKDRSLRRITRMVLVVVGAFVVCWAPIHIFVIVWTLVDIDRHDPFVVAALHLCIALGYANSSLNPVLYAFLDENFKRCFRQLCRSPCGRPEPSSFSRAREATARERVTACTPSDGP
UniProt P32300, whole entry: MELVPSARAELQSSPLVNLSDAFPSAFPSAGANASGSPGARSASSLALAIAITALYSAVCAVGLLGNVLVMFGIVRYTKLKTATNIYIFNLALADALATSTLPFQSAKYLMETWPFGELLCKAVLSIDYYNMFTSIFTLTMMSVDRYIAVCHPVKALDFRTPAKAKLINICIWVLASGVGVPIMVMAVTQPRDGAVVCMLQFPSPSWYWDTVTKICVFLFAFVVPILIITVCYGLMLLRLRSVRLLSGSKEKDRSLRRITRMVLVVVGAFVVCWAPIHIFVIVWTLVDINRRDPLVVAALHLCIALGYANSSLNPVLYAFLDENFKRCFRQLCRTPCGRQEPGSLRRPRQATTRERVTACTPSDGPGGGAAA

The next test has as its target T2, δ opioid receptor (Mus musculus, UniProt P32300).
T2 construct: from tissue; host or cells: organ-bath tissue, probably mouse vas deferens
Kind of test: Antagonist activity (pA2) at δ in the functional assays. It is filed as cell-based.

One may read the Ki as a dissociation constant, usually derived from enzyme kinetics or from competition with a known ligand. Broadly, the Kb is the affinity of an antagonist, worked out from how it opposes an agonist. Low values mean a more potent antagonist, high ones a less potent antagonist.

Molecules are shown by their SMILES. Structures can show the parent of a compound that is named as a salt. Where two headings read alike, the source gives them in different places.

In the case of `C=CCN1CC[C@@]2(C)c3cc(O)ccc3CC1[C@@H]2C.Cl` (single isomer, unassigned; (-)) [(−) SKF 10,047-HCl], the Ki at kappa3 receptors was found to be 1.5 nM.
On to `O=C1/C(=C/c2ccccc2)C[C@@]2(O)[C@H]3Cc4ccc(O)c5c4[C@@]2(CCN3CC2CC2)[C@H]1O5` [BNTX], for which the Ki is 4.2 nM on delta receptors (read-out: Ki δ [^3H]Cl-DPDPE) and 3.5 nM at kappa3 receptors.
Compound `C=CCN1CC[C@]23c4c5ccc(O)c4O[C@H]2[C@@H](O)C=C[C@H]3[C@H]1C5` [Nalorphine] returned a Kb at δ opioid receptor of 162 nM.
The compound `Oc1ccc2c3c1O[C@H]1c4[nH]c5ccccc5c4C[C@@]4(O)[C@@H](C2)N(CC2CC2)CC[C@]314` [Naltrindole] registered a Ki at delta receptors of 0.09 nM.
As to `COC(=O)/C=C/C(=O)N[C@@H]1CC[C@@]2(O)[C@H]3Cc4ccc(O)c5c4[C@@]2(CCN3CC2CC2)[C@H]1O5` [β-FNA-HCl], the Ki at delta receptors (read-out: Ki δ [^3H]Cl-DPDPE) came to 7.7 nM.

The values are drawn from patent US6403602B1 (priority 1997, dated 2002).
